{"source": "paper PMC8064294", "about": "(Journal of medicinal chemistry, 2020)", "biological_target": "T1, ULK1 (NanoLuc-ULK1 fusion) (Homo sapiens, UniProt O75385)", "T1 sequence (O75385 1-1050)": "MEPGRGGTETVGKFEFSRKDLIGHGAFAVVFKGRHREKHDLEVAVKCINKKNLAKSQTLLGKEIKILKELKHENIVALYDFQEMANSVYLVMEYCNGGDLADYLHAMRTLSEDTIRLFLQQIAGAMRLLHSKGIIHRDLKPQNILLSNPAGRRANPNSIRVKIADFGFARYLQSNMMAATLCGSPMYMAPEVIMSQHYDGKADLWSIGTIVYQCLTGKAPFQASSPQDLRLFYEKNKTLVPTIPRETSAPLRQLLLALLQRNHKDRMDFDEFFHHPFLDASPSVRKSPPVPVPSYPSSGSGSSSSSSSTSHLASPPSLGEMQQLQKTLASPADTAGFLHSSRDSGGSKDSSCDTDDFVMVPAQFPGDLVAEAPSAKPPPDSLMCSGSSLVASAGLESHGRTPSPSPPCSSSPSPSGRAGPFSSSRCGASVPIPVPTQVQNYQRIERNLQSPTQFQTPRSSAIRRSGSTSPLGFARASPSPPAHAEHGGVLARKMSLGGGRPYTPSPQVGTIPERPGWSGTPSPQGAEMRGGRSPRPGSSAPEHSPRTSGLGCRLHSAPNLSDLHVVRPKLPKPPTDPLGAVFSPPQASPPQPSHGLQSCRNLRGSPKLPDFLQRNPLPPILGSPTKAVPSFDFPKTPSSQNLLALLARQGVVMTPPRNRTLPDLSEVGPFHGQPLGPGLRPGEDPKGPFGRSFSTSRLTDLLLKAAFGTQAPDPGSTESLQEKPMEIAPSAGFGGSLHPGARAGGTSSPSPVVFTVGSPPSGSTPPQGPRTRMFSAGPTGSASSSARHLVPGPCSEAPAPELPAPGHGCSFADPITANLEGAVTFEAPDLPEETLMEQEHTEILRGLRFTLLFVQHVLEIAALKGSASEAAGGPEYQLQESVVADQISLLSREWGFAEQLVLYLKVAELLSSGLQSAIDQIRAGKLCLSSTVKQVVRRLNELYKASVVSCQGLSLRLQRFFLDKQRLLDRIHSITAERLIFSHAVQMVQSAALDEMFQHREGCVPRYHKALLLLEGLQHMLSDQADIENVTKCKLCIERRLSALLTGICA", "experiment": "ULK1 NanoBRET intracellular kinase target engagement assay in HEK293T cells", "type": "cell-based", "conditions": "HEK293T live cells"}
{"smiles": "FC(F)(F)c1cnc(Nc2ccc3nc[nH]c3c2)nc1NC1CC1", "note": "[compound 7, N^2-(1H-Benzo[d]imidazol-6-yl)-N^4-cyclopropyl-5-(trifluoromethyl)pyrimidine-2,4-diamine]", "values": [{"measurement": "ULK1 NanoBRET IC50 (range in words)", "value": "sub-micromolar range"}]}
